# Screening data as filed in PubChem.
# E-sel inducer: E-selectin induction on HUVECs | P16581 | HUVEC E-selectin immunofluorescence imaging; normalized: neutral wells 0, TNF-alpha wells 100 | activation, % at 7.58 µM | 260,000 tested, 0.37% active | AID 686992;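 active means mean E-selectin-positive cell signal at least 10% of the positive control, reached in at least 60% of replicates, without over 20% cell loss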
#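 assay system = HUVEC, human umbilical vein endothelial cells | input = 3,000 HUVEC seeded per well | medium = EGM-2 growth medium on 0.1% gelatin-coated wells | dosing = one compound dose added by pin transfer | signal = immunofluorescence imaging | read-out basis = % PE-positive cells | control set = TNF-alpha, DMSO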
# Yeast UUG start: alters start codon recognition fidelity in yeast. S. cerevisiae UUG-firefly luciferase reporter, luminescence/redox ratio. AID 602363. activity score, % at 18.7 µM. hit rate 0.13% among 350,000;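 active = replicate mean at a twofold rise or more, about +100% in these data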;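 note: firefly luciferase made from a UUG start codon reports start codon fidelity; reporter light over untreated wells divided by growth signal over untreated wells; some hits fall short of that in this replicate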
# S100A4 MyoIIA: inhibitors of human S100A4 binding to myosin IIA peptide; 360,000 tested, 0.14% active; inhibition, % at 10.7 µM; AID 652163; S100A4/TAMRA-MyoIIA peptide fluorescence polarization;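 active means mean inhibition of at least 70% across replicates, with every replicate also reaching that level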
#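 assay system = human S100A4 monomer with TAMRA-labelled myosin IIA peptide | also added = labelled myosin peptide probe, 5 nM | incubation = 5 min between mix addition and reading | control set = DMSO and TFP controls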
# MLL AF4-AF9 inh: blocks AF4 peptide binding to human AF9 | P42568 | AlphaScreen, biotin-AF4 peptide binding to FLAG-AF9 | inhibition, % at 10 µM | 350,000 tested, 0.47% active | AID 651704;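 active means every replicate reaching a set inhibition limit, whatever the replicate mean, cut at about 25% in these data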;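 further: 0% = plate neutral control median and 100% = total signal loss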
# ERAP1 HTS inh: inhibitors of human ERAP1 aminopeptidase; Q9NZ08; recombinant ERAP1, Leu-AMC fluorescence, 60 min; inhibition, % at 10.7 µM; 340,000 tested, 0.15% active; AID 652197;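 active means mean replicate inhibition of at least 30%, or all replicates individually reaching that 30% level; inactive means mean below 30% and not every replicate reaching it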;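 further: 0% = neutral control wells and 100% = L-leucinethiol positive control wells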
# ARNT-TACC3 inh: disrupts binding between human ARNT and TACC3 | Q9Y6A5 | AlphaScreen His-ARNT PAS-B/GST-TACC3 binding, luminescence; TACC3 fragment carries E629A point mutation | AID 623870 | inhibition, % at 9.99 µM | 390,000 tested, 0.66% active;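 active means mean inhibition of replicates at least 50% and at least half of replicates each reaching 50%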;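 further: 0% = complete ARNT plus TACC3 wells and 100% = ARNT alone without TACC3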
# * marks the source's active call; other numbers are inactive results; i = inactive; . = not tested or not shown. Shown are actives, neighbours in structure and some others; about 1.3% of the full set was active somewhere.
# Field names: A = E-sel inducer; B = Yeast UUG start; C = S100A4 MyoIIA; D = MLL AF4-AF9 inh; E = ERAP1 HTS inh; F = ARNT-TACC3 inh
compound: O=c1[nH]c(=O)n(Cc2ccco2)c(O)c1/C=N/N1CCCCC1
  A: 11 | B: . | C: -1 | D: -2 | E: 2 | F: active

compound: CC=Cc1ccc2n(c1=O)C[C@@H]1[C@@H](CO)[C@H](C(=O)OC)[C@H]2N1S(=O)(=O)c1ccccc1C (mixture of isomers)
  A: 0 | B: . | C: -13 | D: 2 | E: -1 | F: -14

compound: CCN1[C@@H]2Cn3c(ccc(-c4ccc(OC)cc4)c3=O)[C@H]1[C@@H](C(=O)OC)[C@@H]2CO
  A: 0 | B: . | C: 12 | D: 2 | E: 1 | F: 3

compound: O=c1ccc2cc(O[C@@H]3O[C@H](CO)[C@@H](O)[C@H](O)[C@H]3O)c(O)cc2o1
  A: 0 | B: -2 | C: 3 | D: -4 | E: 154* | F: -5

compound: Cc1ccccc1NC(=NCCCN1CC1)Nc1ccccc1C
  A: . | B: . | C: 0 | D: 78* | E: 2 | F: -8

compound: CC[n+]1c(-c2ccccc2)c2cc(N)ccc2c2ccc(N)cc21
  A: 12 | B: . | C: 130* | D: 30* | E: 12 | F: 1

compound: CCCCn1c(O)c(C(C)=NCc2cc(OC)cc(OC)c2)c(=O)[nH]c1=O
  A: . | B: -17 | C: . | D: . | E: . | F: 26*

compound: CCCCn1c(O)c(C(CC)=NCc2cc(OC)cc(OC)c2)c(=O)[nH]c1=O
  A: . | B: -6 | C: . | D: . | E: . | F: -5

compound: CNC(=O)OCCc1n(C)cc[n+]1C
  A: 1 | B: -8 | C: -6 | D: -7 | E: 102* | F: 17

compound: COc1cccc(-c2ccc3n(c2=O)C[C@H]2[C@H](CO)[C@@H](C(=O)O)[C@@H]3N2Cc2ccccc2F)c1
  A: 0 | B: . | C: . | D: . | E: . | F: .

# The final 3 compounds of the section above come first, to join the parts:
# Field names: A = E-sel inducer; B = Yeast UUG start; C = S100A4 MyoIIA; D = MLL AF4-AF9 inh; E = ERAP1 HTS inh; F = ARNT-TACC3 inh
compound: CCCCn1c(O)c(C(CC)=NCc2cc(OC)cc(OC)c2)c(=O)[nH]c1=O
  A: . | B: -6 | C: . | D: . | E: . | F: -5

compound: CNC(=O)OCCc1n(C)cc[n+]1C
  A: 1 | B: -8 | C: -6 | D: -7 | E: 102* | F: 17

compound: COc1cccc(-c2ccc3n(c2=O)C[C@H]2[C@H](CO)[C@@H](C(=O)O)[C@@H]3N2Cc2ccccc2F)c1
  A: 0 | B: . | C: . | D: . | E: . | F: .

compound: O=P1(c2ccccc2)Nc2ccccc2N1c1ccccc1 (configuration not stated)
  A: 1 | B: -31 | C: -9 | D: 28* | E: 2 | F: -3

compound: Cc1cccc(CN2CCCC(C(=O)c3ccc4c(c3)OCO4)C2)n1 (configuration not stated)
  A: 33* | B: -9 | C: -7 | D: -1 | E: -2 | F: -2

compound: CCN1[C@@H]2Cn3c(ccc(-c4cccc(OC)c4)c3=O)[C@H]1[C@@H](C(=O)OC)[C@@H]2CO
  A: 0 | B: . | C: -9 | D: -1 | E: 1 | F: -3

compound: CC1CCCN(c2ccc(C(=O)N3CCC4(CC3)OCCO4)cc2[N+](=O)[O-])C1 (configuration not stated)
  A: 0 | B: -12 | C: 5 | D: 4 | E: -2 | F: -7

compound: CCOC(=O)C1CCCN(c2ccc([N+](=O)[O-])c3nonc23)C1 (configuration not stated)
  A: -1 | B: . | C: 170* | D: -2 | E: 20 | F: -4

compound: c1ccc2c(c1)[IH]c1ccccc1-2
  A: 8 | B: 151* | C: 1 | D: -12 | E: 0 | F: -1

compound: c1ccc2c(c1)-c1cccc3cccc-2c13
  A: . | B: -11 | C: -6 | D: -2 | E: 2 | F: i

compound: CC(=NNC(=S)N1CC2CCC(CC2)C1)c1nccs1
  A: 1 | B: . | C: -1 | D: 11 | E: 0 | F: 72*

compound: COc1ccc(-c2ccc([C@@H]3[C@@H](CO)N4CCCCN(C(=O)Cc5ccccc5)C[C@H]34)cc2)cc1
  A: 0 | B: -5 | C: . | D: . | E: . | F: -4

compound: COC(=O)c1nc(-c2ccc3c(n2)C(=O)C(N)=C(OC)C3=O)c(N)c(-c2ccc(OC)c(OC)c2O)c1C
  A: 0 | B: -6 | C: -7 | D: 12 | E: 3 | F: 45*

compound: CC1CN(c2ccc([N+](=O)[O-])cc2Cl)CCN1 (configuration not stated)
  A: . | B: -10 | C: . | D: . | E: . | F: 49*

compound: CCOC(=O)[C@@H]1[C@@H]2NC(=S)N[C@@]1(C)Oc1ccccc12
  A: . | B: 3 | C: -26 | D: -6 | E: 1 | F: 23

compound: Cc1[nH]c2ccccc2c1C1=CCNCC1
  A: . | B: -9 | C: -4 | D: 38* | E: 3 | F: 16

compound: C1=C(c2ccccc2)CCNC1
  A: . | B: -19 | C: -3 | D: -4 | E: 2 | F: .

compound: CCn1c(NN=O)nc2ccccc21
  A: 0 | B: -17 | C: -7 | D: 11 | E: -5 | F: 48*

compound: CCn1c(P(C)(=O)O)nc2ccccc21
  A: . | B: -2 | C: . | D: . | E: . | F: -3

compound: O=C(Cc1ccccn1)N1CC2(C1)[C@@H](c1ccccc1)[C@@H](CO)N2Cc1ccccn1
  A: 0 | B: . | C: 0 | D: 2 | E: -2 | F: .

compound: COC(=O)[C@H]1[C@H](CO)[C@H]2Cn3c(ccc(/C=C/c4ccccc4)c3=O)[C@@H]1N2Cc1ccccc1F
  A: 0 | B: . | C: 4 | D: -87 | E: 5 | F: -31

compound: COc1ccc(C#Cc2ccc([C@@H]3[C@H]4CN(C(=O)Cc5cccnc5)CCCCN4[C@H]3CO)cc2)cc1
  A: 0 | B: 4 | C: -22 | D: -5 | E: 2 | F: -3

compound: COC(=O)C[C@@H]1CC[C@H]2NC[C@@H](O)COC[C@@H]2O1
  A: 0 | B: . | C: . | D: . | E: . | F: 15

compound: COc1cc2c(cc1OC)-c1c3c(cc4c1[C@@H](C2)N(C)CC4)OCO3
  A: 0 | B: -11 | C: 5 | D: 20 | E: 3 | F: 35*

compound: COc1cc2c(cc1O)C[C@H]1NCCc3cc4c(c-2c31)OCO4
  A: 0 | B: 8 | C: 3 | D: 12 | E: 3 | F: 52*

compound: CCN1[C@@H]2c3ccc(-c4ccc(OC)cc4)c(=O)n3C[C@H]1[C@H](CO)[C@H]2C(=O)OC
  A: 0 | B: . | C: 11 | D: 1 | E: -1 | F: 0

compound: C=CCn1c(O)c(N=Nc2c(C)n(C)n(-c3ccccc3)c2=O)c(=O)[nH]c1=S
  A: 0 | B: 0 | C: -25 | D: -10 | E: 4 | F: 63*

compound: CCOc1ccc(-n2c(O)c(N=Nc3c(C)n(C)n(-c4ccccc4)c3=O)c(=O)[nH]c2=O)cc1
  A: . | B: -25 | C: -2 | D: 1 | E: . | F: 60*

compound: Cc1c(N=Cc2c(O)n(Cc3ccc(F)cc3)c(=O)[nH]c2=O)c(=O)n(-c2ccccc2)n1C
  A: . | B: -14 | C: 0 | D: . | E: 3 | F: -2

compound: CCCCCCn1c(O)c(C=Nc2c(C)n(C)n(-c3ccccc3)c2=O)c(=O)[nH]c1=O
  A: . | B: -10 | C: . | D: . | E: . | F: -1

compound: Cc1c(N=Nc2c(O)[nH]c(=S)[nH]c2=O)c(=O)n(-c2ccccc2)n1C
  A: -2 | B: -8 | C: . | D: . | E: . | F: 61*

compound: O=C(Cc1ccccn1)N1CCCCN2[C@H](CO)[C@H](c3ccc(-c4ccccc4F)cc3)[C@@H]2C1
  A: -1 | B: -5 | C: -1 | D: -5 | E: 2 | F: 8

compound: COc1ccc(/C=C2/C(=O)NC(=O)N(c3ccccc3)C2=O)cc1CN1C(=O)c2ccccc2C1=O
  A: . | B: -18 | C: . | D: . | E: . | F: 0

compound: COc1cc(/C=C2/C(=O)NC(=O)N(c3ccccc3)C2=O)ccc1O
  A: 0 | B: . | C: -9 | D: -5 | E: 7 | F: active

compound: COc1ccc(C=C2C(=O)NC(=S)NC2=O)cc1OC
  A: 0 | B: 1 | C: -4 | D: -5 | E: 37* | F: 7

compound: COc1cccc(-c2ccc([C@@H]3[C@H]4CN(C(=O)Cc5ccncc5)CCCCN4[C@H]3CO)cc2)c1
  A: 0 | B: -6 | C: -3 | D: . | E: . | F: .

compound: O=C(O)[C@H]1[C@H](CO)[C@H]2Cn3c(ccc(-c4cccc(F)c4)c3=O)[C@@H]1N2CCc1ccccc1
  A: 0 | B: . | C: 8 | D: 2 | E: 2 | F: 3

compound: O=C(Cc1cccnc1)N1CCCCN2[C@H](CO)[C@H](c3ccc(C#CC4(O)CCCC4)cc3)[C@@H]2C1
  A: 0 | B: 3 | C: -2 | D: -3 | E: -1 | F: -8

compound: O=C(Cc1cccnc1)N1CCCCN2[C@@H](CO)[C@@H](c3ccc(C#CC4(O)CCCC4)cc3)[C@@H]2C1
  A: 0 | B: 33 | C: 98* | D: -4 | E: 3 | F: 6
